A short description of data set [1]: Nasal absorption of TSDG in rats: plasma levels after intranasal and intravenous administration, HPLC. It is filed as in vivo, Male Sprague-Dawley rats. Here is the method:
The nasal absorption of the water soluble testosterone prodrug TSDG was studied using an in vivo experimental technique previously described by Huang et al. (J.Pharmaceut. Sci., 74: 608-611, 1985).
Male Sprague-Dawley rats weighing 250-275 gm were used. Animals were fasted overnight before the experiment, but water was given ad libitum. All surgical procedures were performed under sodium pentobarbital anesthesia (40 mg/kg i.p.). An incision was made in the neck, and the trachea was cannulated with a polyethylene tube. A closed tube was inserted through the esophagus to the posterior part of the nasal cavity. The nasopalatine passage was closed with an adhesive agent to prevent drainage of the drug from the nasal cavity to the mouth.
Blood samples were collected from a cannula inserted into the femoral artery. For intravenous administration, the jugular vein was cannulated for administering the dose.
Drug solutions at 25 and 50 mg/kg/0.2 ml equimolar doses of TSDG were freshly prepared by using 0.05M phosphate buffer at pH 6.0. For nasal administration, aqueous solutions of TSDG and testosterone were administered through the nostril using a microsyringe. For intravenous administration, the same dose of the drug was injected through the jugular vein.
Blood samples were collected at 0, 5, 10, 20, 30, 40, 60, 90, 120, 150, and 180 minutes. After immediate centrifugation (3000×g for 3 min), the plasma was separated. The animal was sacrificed after the last sample was obtained, and the samples were then analyzed by HPLC, using the method of Hsyu et al. (Pharm. Res. 11:156-159, 1994). Briefly, plasma concentrations of testosterone free base were determined via a HPLC protocol which included solid-phase extraction, separation on a reverse-phase cyano column, and UV detection at 305 nm.

The conditions of data set [2]: human liver homogenate, FIG. 2.
For data set [3] the following is noted: FIG. 3.

Turning to “testosteronyl, N,N-dimethyl amine glyconate [TSDG]”, the Absorption entry in data set [1] (intranasal, 25.0 mg/kg) was “rapid”. Further, the “plasma levels at all time points, compared with intravenous administration” value in data set [1] (intranasal, 25.0 mg/kg) is given as “comparable to those following intravenous administration”. For the same substance, the AUC in data set [1] (intranasal, dose 25 mg/kg) was found to be 1630 ng·h/mL; in data set [1] (intranasal, dose 50 mg/kg) it was 2660 ng·h/mL; in data set [1] (intravenous, dose 25 mg/kg), 1650 ng·h/mL; in data set [1] (intravenous, dose 50 mg/kg), 2830 ng·h/mL. For the same substance, the “conversion to TS” value in data set [2] is “convert rapidly to TS”. Besides, the stability in water result in data set [3] is “very stable in water”.
